Literature values in patent US20140037721A1, “Pharmaceutical Composition” (Alpharma pharmaceuticals LLC, priority 2007, published 2014).

System: opioid receptors
Settings: One mg intravenously; cited from earlier work

C=CCN1CC[C@]23c4c5ccc(O)c4O[C@H]2C(=O)CC[C@@]3(O)[C@H]1C5 [naloxone]
blockade of the effect of 25 mg of heroin: block completely
